Experimental findings from patent US4252956A, “Derivatives of 1,4-dihydropyridine-3-carbothiol acids” (priority 1979, dated 1981) are described below.

A short description of the data set: in vivo. As to conditions: mouse, ip, white mice, intraperitoneal, read-out: LD50 for white mice upon intraperitoneal administration.

For `CCOC(=O)COc1ccc2c(C)c(CCN(CC)CC)c(=O)oc2c1` [Carbocromene, reference compound], the LD50 came to 640 mg/kg.
